Key:
TK+ VZV strain = conditions: read-out: Antiviral Activity EC50, TK+ VZV Strain; HEL cell cultures; concentration reducing virus plaque formation by 50%
TK− VZV strain = conditions: read-out: Antiviral Activity EC50, TK− VZV Strain; HEL cell cultures; concentration reducing virus plaque formation by 50%

Question: How did the EC50 (TK+ VZV strain) turn out when `CN(C)CCN1C(=O)c2cccc3cc(N)cc(c23)C1=O` [Amonafide, reference compound] was run?
Answer: Its EC50 is 3.18 µM.

Question: And the EC50 (TK− VZV strain)?
Answer: Its EC50 is 6.48 µM.
